Data set [1] can be described thus: Conductometric determination of critical micelle concentration. To be noted: conductometry, aqueous solutions at 49 °C.
The nature of data set [2]: Micellar catalysis: fenitrothion degradation (Guggenheim method).
In the next data set the test system is CHO-K1 cells. Kind of data set: MTT cell viability assay. Particulars: read-out: IC50 ± SEM, 24 h exposure, n = 3.

Each structure is given as a SMILES string.

Regarding `CCCCCCCCCCCCCC[N+](CCO)(CCO)Cc1ccccc1.[Cl-]`, in data set [1], the CMC amounted to 0.003003 mol/L. The “log CMC” value in data set [1] is reported as −2.522. The “10^4 k” value in data set [2] (c 0.1 mM, pH 10, 37 °C) came to 0.50 s^−1; in data set [2] (c 0.1 mM, pH 11, 37 °C), 1.17 s^−1; in data set [2] (c 0.5 mM, pH 10, 37 °C), 1.12 s^−1; in data set [2] (c 0.5 mM, pH 11, 37 °C), 3.80 s^−1; in data set [2] (c 1 mM, pH 10, 37 °C), 2.02 s^−1; in data set [2] (c 1 mM, pH 11, 37 °C) it was 11.28 s^−1. Moreover, the “10^4 k” value in data set [2] (c 5 mM, pH 10, 37 °C) came out at 5.82 s^−1; in data set [2] (c 5 mM, pH 11, 37 °C) it was 23.62 s^−1; in data set [2] (c 10 mM, pH 10, 37 °C), 6.77 s^−1; in data set [2] (c 10 mM, pH 11, 37 °C), 24.62 s^−1.
Take `CCCCCCCCCCCCCCCCCC[N+](CCO)(CCO)Cc1ccccc1.[Cl-]`: the CMC in data set [1] worked out at 0.0004707 mol/L. Besides, the “10^4 k” value in data set [2] (c 0.05 mM, pH 10, 37 °C) is on record as 0.28 s^−1; in data set [2] (c 0.05 mM, pH 11, 37 °C), 0.83 s^−1; in data set [2] (c 0.1 mM, pH 10, 37 °C) it was 0.82 s^−1; in data set [2] (c 0.1 mM, pH 11, 37 °C), 1.87 s^−1; in data set [2] (c 0.5 mM, pH 10, 37 °C), 2.97 s^−1; in data set [2] (c 0.5 mM, pH 11, 37 °C), 7.82 s^−1. Besides, the “10^4 k” value amounted to 4.37 s^−1 in data set [2] (c 1 mM, pH 10, 37 °C); 13.95 s^−1 in data set [2] (c 1 mM, pH 11, 37 °C); 6.98 s^−1 in data set [2] (c 5 mM, pH 10, 37 °C); 23.30 s^−1 in data set [2] (c 5 mM, pH 11, 37 °C).
Regarding `CCCCCCCCCCCCCC[N+](CCO)(CCO)Cc1ccccc1`, the IC50 in the data set on CHO-K1 cells worked out at 27.3 µM.
On the same count and under the same terms, the value for `CCCCCCCCCCCC[N+](C)(C)Cc1ccccc1` was 19.5 µM.
`CCCCCCCCCC[N+](CCO)(CCO)Cc1ccccc1.[Cl-]` had a CMC in data set [1] of 0.04836 mol/L. Besides, the “log CMC” value in data set [1] is reported as −1.316. The “10^4 k” value in data set [2] (c 5 mM, pH 11, 37 °C) is 0.35 s^−1; in data set [2] (c 10 mM, pH 10, 37 °C), 0.18 s^−1; in data set [2] (c 10 mM, pH 11, 37 °C), 0.50 s^−1; in data set [2] (c 50 mM, pH 10, 37 °C) it was 3.77 s^−1; in data set [2] (c 50 mM, pH 11, 37 °C) it was 12.68 s^−1; in data set [2] (c 100 mM, pH 10, 37 °C), 3.97 s^−1. The “10^4 k” value in data set [2] (c 100 mM, pH 11, 37 °C) was 12.82 s^−1; in data set [2] (c 500 mM, pH 10, 37 °C), 2.30 s^−1; in data set [2] (c 500 mM, pH 11, 37 °C), 6.20 s^−1.
`CCCCCCCCCCCCCCCC[N+](CCO)(CCO)Cc1ccccc1`: the IC50 with CHO-K1 cells was determined as 19.6 µM.
In data set [1], `CCCCCCCCCCCCCCCC[N+](CCO)(CCO)Cc1ccccc1.[Cl-]` displayed a CMC of 0.001159 mol/L. The “log CMC” value in data set [1] is −2.936. The “10^4 k” value in data set [2] (c 0.1 mM, pH 10, 37 °C) stood at 1.10 s^−1; in data set [2] (c 0.1 mM, pH 11, 37 °C) it was 1.77 s^−1; in data set [2] (c 0.5 mM, pH 10, 37 °C) it was 2.30 s^−1; in data set [2] (c 0.5 mM, pH 11, 37 °C) it was 6.47 s^−1; in data set [2] (c 1 mM, pH 10, 37 °C) it was 3.97 s^−1; in data set [2] (c 1 mM, pH 11, 37 °C), 12.32 s^−1. Also, the “10^4 k” value in data set [2] (c 5 mM, pH 10, 37 °C) is listed as 11.14 s^−1; in data set [2] (c 5 mM, pH 11, 37 °C) it was 49.06 s^−1; in data set [2] (c 10 mM, pH 10, 37 °C), 11.56 s^−1; in data set [2] (c 10 mM, pH 11, 37 °C), 50.73 s^−1.
Regarding `CCCCCCCCCC[N+](CCO)(CCO)Cc1ccccc1`, the IC50 in the data set with CHO-K1 cells stood at 128 µM.
Regarding `CCCCCCCCCCCC[N+](CCO)(CCO)Cc1ccccc1`, in the data set with CHO-K1 cells, the IC50 was determined as 36.1 µM.
Compound `CCCCCCCCCCCC[N+](CCO)(CCO)Cc1ccccc1.[Cl-]` had a CMC in data set [1] of 0.00871 mol/L. The “log CMC” value in data set [1] is listed as −2.060. For the same compound, the “10^4 k” value in data set [2] (c 1 mM, pH 11, 37 °C) is 1.80 s^−1; in data set [2] (c 5 mM, pH 10, 37 °C), 1.15 s^−1; in data set [2] (c 5 mM, pH 11, 37 °C), 5.93 s^−1; in data set [2] (c 10 mM, pH 10, 37 °C) it was 2.65 s^−1; in data set [2] (c 10 mM, pH 11, 37 °C), 8.23 s^−1; in data set [2] (c 50 mM, pH 10, 37 °C), 2.35 s^−1. For the same compound, the “10^4 k” value is on record as 9.35 s^−1 in data set [2] (c 50 mM, pH 11, 37 °C); 1.67 s^−1 in data set [2] (c 100 mM, pH 10, 37 °C); 8.17 s^−1 in data set [2] (c 100 mM, pH 11, 37 °C).
Turning to `CCCCCCCCCCCCCCCCCC[N+](CCO)(CCO)Cc1ccccc1`, the IC50 in the data set with CHO-K1 cells was 19.1 µM.

(Values after article PMC8469817, “Synthesis and Decontamination Effect on Chemical and Biological Agents of Benzoxonium-Like Salts” (2021).)
